Measurements published in patent US4585859A, “Analogues of morpholinyl daunorubicin and morpholinyl doxorubicin” (priority 1984, dated 1986).
Values joined by “and” are separate entries in the source; they are usually repeats but may differ in a detail not shown here. Equal entries are not always repeated.

System: L1210 leukemia
Conditions: in vivo, ip

| Compound | Mouse Antitumor Efficacy at Optimum Dose, % T/C | Optimum Dose (mouse) |
| --- | --- | --- |
| COc1cccc2c1C(=O)c1c(O)c3c(c(O)c1C2=O)C[C@@](O)(C(=O)CO)C[C@@H]3O[C@H]1C[C@H](N2CCOCC2C#N)[C@H](O)[C@H](C)O1 (stereo partly shown) [NSC 357704, 3'-deamino-3'-(3"-cyano-4"-morpholinyl)doxorubicin] | 164% and > 164% and 166% | – |
| COc1cccc2c1C(=O)c1c(O)c3c(c(O)c1C2=O)C[C@@](O)(C(O)CO)C[C@@H]3O[C@H]1C[C@H](N2CCOCC2C#N)[C@H](O)[C@H](C)O1 (stereo partly shown) [NSC 360291, 3'-deamino-3'-(3"-cyano-4"-morpholinyl)-13-dihydrodoxorubicin] | 152% and > 128% and > 148% | 0.025 mg/kg and 0.05 mg/kg |
| COc1cccc2c1C(=O)c1c(O)c3c(c(O)c1C2=O)C[C@@](O)(C(=O)CO)C[C@@H]3O[C@H]1C[C@H](N)[C@H](O)[C@H](C)O1 [doxorubicin] | 168% and 173% | – |
